For 1 compound, EC50 results are on record in PMC4194234 (Psychopharmacology, 2014).

The chains behind the UniProt entries cited, without tags or fusion partners.
UniProt P28223, whole entry: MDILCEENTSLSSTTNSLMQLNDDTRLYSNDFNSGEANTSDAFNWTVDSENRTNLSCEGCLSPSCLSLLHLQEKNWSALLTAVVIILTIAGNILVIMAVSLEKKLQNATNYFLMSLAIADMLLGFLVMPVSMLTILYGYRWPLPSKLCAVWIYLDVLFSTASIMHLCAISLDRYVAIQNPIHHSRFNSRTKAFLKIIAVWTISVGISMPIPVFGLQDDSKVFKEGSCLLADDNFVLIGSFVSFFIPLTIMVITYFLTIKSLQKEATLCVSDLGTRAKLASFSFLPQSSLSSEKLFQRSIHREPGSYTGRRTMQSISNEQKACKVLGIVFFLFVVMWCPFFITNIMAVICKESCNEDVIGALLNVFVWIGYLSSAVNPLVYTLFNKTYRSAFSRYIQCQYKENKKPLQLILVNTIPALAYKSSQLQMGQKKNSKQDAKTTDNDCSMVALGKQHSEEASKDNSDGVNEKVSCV

The experiment has as its target 5-HT2A receptor (Homo sapiens, UniProt P28223). Description: cell-based.

One may read the EC50 as the concentration needed to bring the measured effect to its halfway point. High values mean a need for much substance, low ones an effect from little substance.

Turning to `COc1ccc2[nH]cc(CCN(C(C)C)C(C)C)c2c1` [Compound 1, N,N-diisopropyl-5-methoxytryptamine], the EC50 is 946 ± 141 nM.
